Measurements taken from patent US6780891B2, “Tramadol analogs and uses thereof” (Sepracor Inc., priority 2001, dated 2004).
“And” between values parts separate entries of the source, which are not always exact repeats. Equal entries are not always repeated.

The chains behind the UniProt entries cited, without tags or fusion partners.
UniProt P33535, whole entry: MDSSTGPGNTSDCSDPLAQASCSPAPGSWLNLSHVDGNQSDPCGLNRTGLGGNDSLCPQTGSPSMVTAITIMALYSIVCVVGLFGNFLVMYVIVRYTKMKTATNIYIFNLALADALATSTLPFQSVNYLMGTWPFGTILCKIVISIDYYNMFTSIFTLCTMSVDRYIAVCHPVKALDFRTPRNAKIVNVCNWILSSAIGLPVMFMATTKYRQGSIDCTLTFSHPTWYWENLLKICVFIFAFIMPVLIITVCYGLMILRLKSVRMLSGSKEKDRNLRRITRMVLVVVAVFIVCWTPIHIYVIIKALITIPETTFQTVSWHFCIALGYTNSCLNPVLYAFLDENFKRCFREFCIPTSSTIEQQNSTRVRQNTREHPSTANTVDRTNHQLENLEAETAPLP

Molecular target: μ receptor (Rattus norvegicus, UniProt P33535)
Experiment: biochemical
Details: IC50, opioid binding, rat cerebral cortex, [3H]DAMGO 1 nM, 60 minutes/22° C.

C[C@@H](NC(=O)[C@@H](N)Cc1ccc(O)cc1)C(=O)NCC(=O)N(C)[C@@H](Cc1ccccc1)C(=O)NCCO [DAMGO, reference compound]
IC50: 2.1 nM and 4.4 nM
